Data taken from US4511550A, “1-(p-Substituted or unsubstituted aminoalkyl)phenylpropane-1,2-dione bis(thiosemicarbazone) derivatives, and their production and use” (Nihon Medi-Physics Co., Ltd., priority 1982, dated 1985).

How the values were obtained:
[1] = Variation of blood level in rats after intravenous administration; assay type: in vivo, rats of SD strain; details: female SD rats, i.v.
[2] = background art; cited from earlier work

Substance | Blood level (% of dose/g; in average) ([1]; 0.5 hours) [%/g] | Blood level (% of dose/g; in average) ([1]; 3 hours) [%/g] | Stability after administration into living bodies [2]
Conventional ^99m Tc-labeled, human serum albumin (Commercial product B): Conventional ^99m Tc-labeled, human serum albumin (Commercial product B) | 3.15 | 1.88 | –
^99m Tc-labeled serum albumin: human serum albumin treated with ^99m Tc pertechnetate in the presence of a reducing agent | – | – | low in the stability after administration into living bodies
